Where two headings read alike, the source gives them in different places.
Columns and labels:
[1] = molecular target: T1, electric eel acetylcholinesterase (eeAChE) (Electrophorus electricus, UniProt O42275); conditions: discorhabdin G as trifluoroacetate (TFA) salt; ref Botić et al. [5]; cited from earlier work
T1 construct: purchased Sigma-Aldrich

Amino acid sequences for entries named in this document (tags omitted). Residues count along the entry.
UniProt O42275, 24-633: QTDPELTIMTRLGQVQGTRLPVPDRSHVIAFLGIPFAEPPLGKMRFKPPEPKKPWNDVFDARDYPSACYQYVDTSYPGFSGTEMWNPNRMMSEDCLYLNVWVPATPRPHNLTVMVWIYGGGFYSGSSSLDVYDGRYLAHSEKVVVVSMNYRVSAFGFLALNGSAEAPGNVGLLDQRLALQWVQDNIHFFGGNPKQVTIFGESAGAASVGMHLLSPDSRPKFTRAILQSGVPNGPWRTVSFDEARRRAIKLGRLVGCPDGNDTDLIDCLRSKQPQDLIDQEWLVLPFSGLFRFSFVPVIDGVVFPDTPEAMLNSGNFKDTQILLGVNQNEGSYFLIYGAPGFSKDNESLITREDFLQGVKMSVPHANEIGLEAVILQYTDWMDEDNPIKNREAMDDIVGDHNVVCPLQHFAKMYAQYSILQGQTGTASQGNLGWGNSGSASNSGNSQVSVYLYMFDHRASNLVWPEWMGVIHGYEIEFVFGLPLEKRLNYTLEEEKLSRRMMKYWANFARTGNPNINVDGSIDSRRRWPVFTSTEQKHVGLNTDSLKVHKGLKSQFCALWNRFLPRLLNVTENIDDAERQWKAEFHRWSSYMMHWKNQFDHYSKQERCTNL
UniProt P81908, whole entry: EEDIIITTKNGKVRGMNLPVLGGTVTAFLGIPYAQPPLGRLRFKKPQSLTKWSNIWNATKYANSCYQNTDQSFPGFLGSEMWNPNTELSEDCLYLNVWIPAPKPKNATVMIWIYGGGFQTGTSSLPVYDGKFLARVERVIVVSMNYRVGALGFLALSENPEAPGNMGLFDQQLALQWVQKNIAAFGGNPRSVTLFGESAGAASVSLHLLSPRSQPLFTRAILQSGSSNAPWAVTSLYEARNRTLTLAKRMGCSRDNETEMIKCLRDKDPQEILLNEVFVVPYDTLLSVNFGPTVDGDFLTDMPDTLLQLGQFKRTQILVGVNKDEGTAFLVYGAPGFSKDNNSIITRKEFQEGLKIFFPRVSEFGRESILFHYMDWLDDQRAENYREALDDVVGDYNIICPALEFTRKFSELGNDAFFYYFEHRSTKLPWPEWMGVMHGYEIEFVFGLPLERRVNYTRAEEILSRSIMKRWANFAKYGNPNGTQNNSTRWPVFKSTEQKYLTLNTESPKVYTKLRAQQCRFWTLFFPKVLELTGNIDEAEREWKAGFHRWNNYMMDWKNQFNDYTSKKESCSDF

[2] = molecular target: T2, horse serum butyrylcholinesterase (BChE) (Equus caballus, UniProt P81908); assay: Inhibition of horse serum butyrylcholinesterase (modified Ellman method); assay type: biochemical; conditions: pH 7.4, 25 °C, 3 as acetate salt
T2 construct: human recombinant AChE (hAChE), and horse serum BChE; purchased Sigma-Aldrich; host or cells: horse serum
Description: (§1) The inhibition of cholinesterase activity was determined using a modification of the Ellman method, which was adapted for microtiter plates. Stock solutions of 3, 7, and 8 (2 mg/mL) were prepared in pure EtOH. […] Stock solutions of the potential inhibitors and the positive controls were added to the microtiter plate wells and progressively diluted in 100 mM potassium phosphate buffer (pH 7.4) to a final volume of 50 μL. Then, 100 μL acetylthiocholine chloride (1 mM) and 5,5′-dithiobis-2-nitrobenzoic acid (0.5 mM) in 100 mM potassium phosphate buffer (pH 7.4) was added into the microtiter plate wells. The cholinesterases that were used (eeAChE, hAChE, and BChE; all from Sigma-Aldrich, St. Louis, MO, USA) were dissolved in 100 mM potassium phosphate buffer (pH 7.4) to a final concentration of 0.0075 U/mL. Each cholinesterase solution (50 μL) was added into the microtiter plate wells to start the reaction, which was followed spectrophotometrically at 405 nm at 25 °C over 5 min using a kinetic microplate reader (Dynex Technologies Inc., Chantilly, VA, USA). Blank reactions without inhibitors were run with the appropriate dilutions of EtOH, and the readings were corrected according to the corresponding blanks. Each measurement was repeated at least three times. […] The data were analyzed using the OriginPro software (OriginPro 2021 (9.8), OriginLab Corporation, Northampton, MA, USA).

[3] = molecular target: T1, electric eel acetylcholinesterase (eeAChE); assay: Inhibition of electric eel acetylcholinesterase (modified Ellman method); assay type: biochemical; conditions: pH 7.4, 25 °C, 3 as acetate salt
Description: as §1

[4] = molecular target: T2, horse serum butyrylcholinesterase (BChE); conditions: discorhabdin G as trifluoroacetate (TFA) salt; ref Botić et al. [5]; cited from earlier work

## CNC(=O)Oc1ccc2c(c1)[C@]1(C)CCN(C)[C@@H]1N2C [Physostigmine salicylate, reference compound]
[1]
  IC50: 3 µM
[2]
  IC50: 14.5 µM
[3]
  IC50: 7.3 µM
[4]
  IC50: 28.5 µM
